{"source": "paper PMC7601681", "about": "“Human Serum Albumin Binds Native Insulin and Aggregable Insulin Fragments and Inhibits Their Aggregation” (Biomolecules, 2020)", "test": "Solubility and aggregation of pyrene-labeled peptides seen by absorption and fluorescence", "description": "The solutions of HSA (concentration = 3 10^−5 M) were prepared by dissolving the protein in 0.01 M of phosphate buffer saline (PBS, [NaCl] = 150 mM), pH = 7.2. […] The prepared samples were used within 24 h. […] The concentration of HSA was verified spectrophotometrically using the molar absorption coefficient 35500 M^−1cm^−1 at 280 nm for HSA [61]. In order to ensure complete protein hydration, the solutions were stored at room temperature for at least 1 h before measurements. The samples for fluorescence measurements were saturated with argon or deaerated with a vacuum pump.\nThe absorbances of Py-LYQLENY and Py-VEALYL were determined in 10 mM standard PBS solution, ethanol, methanol, and 10 mM TX-100. […]\nThis allowed the molar coefficient absorbance to be determined, using the gravimetric […]\nPy-LYQLENY stock solution in dioxane to the buffer solution enabled the molar absorbance coefficient […]\nIn order to investigate the possible aggregation of the fluorescence labeled insulin hot spots in the buffer solution, spectrophotometric titration was performed for Py -LYQLENY (2) in a range of concentration from 2.9 to 56.4 µM. Titration was carried out until there were no significant changes in fluorescence intensity.\nThe fluorescence spectra were recorded for each concentration (Figure 5a). […]\nFig. S8. Fluorescence spectra of Py-LYQLENY in PBS solutions recorded for the given probe", "data": [{"substance": "Py-Ins: derivative of human insulin labeled with 4-(1-pyrene)butyric acid", "values": [{"measurement": "solubility in aqua media in the presence of HSA", "result": "increased significantly"}, {"measurement": "aggregation in buffer solution", "setting": "0.01 M PBS, 150 mM NaCl, pH 7.2", "result": "partial aggregation"}]}]}
